{"source": "PubChem BioAssay AID434982", "about": "(The Scripps Research Institute Molecular Screening Center, 2010)", "note": "The list shows a part of the results, in another mix than the full data. Active and inactive are the calls of the source. Rule as the data show it: active = activation above about 2.2%; inactive = the rest."}
{"experiment": "agonists of NOTCH signaling (AID 434982)", "settings": "NOTCH signaling luciferase reporter cells, luminescence; at 2.5 µM; hits give high values"}
{"smiles": "Cc1ccccc1NC1CC(C)(C)NC(C)(C)C1", "activation": "inactive: -0.77%"}
